For this assay, the target named is Protein arginine N-methyltransferase 1 (Homo sapiens, UniProt Q99873). Briefly: Inhibition of GST-fused human recombinant PRMT1 after 90 mins by SDS-PAGE based scintillation counting.

By UniProt entry, the sequences of proteins in these tests, tags left out.
UniProt Q99873, whole entry: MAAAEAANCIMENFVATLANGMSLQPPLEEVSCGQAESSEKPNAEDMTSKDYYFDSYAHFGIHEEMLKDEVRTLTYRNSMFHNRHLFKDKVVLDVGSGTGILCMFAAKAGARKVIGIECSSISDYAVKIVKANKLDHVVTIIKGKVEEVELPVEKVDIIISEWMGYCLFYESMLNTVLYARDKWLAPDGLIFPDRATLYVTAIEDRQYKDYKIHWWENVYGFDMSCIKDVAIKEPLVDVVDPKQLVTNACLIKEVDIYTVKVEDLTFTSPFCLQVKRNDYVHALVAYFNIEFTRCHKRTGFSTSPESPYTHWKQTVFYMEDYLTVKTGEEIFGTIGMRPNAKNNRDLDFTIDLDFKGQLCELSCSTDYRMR

Each structure is given as a SMILES string.

The values below come from ChEMBL document CHEMBL1156943, “Toward the development of potent and selective bisubstrate inhibitors of protein arginine methyltransferases” (Bioorg Med Chem Lett, 2010).

By IC50 is commonly meant the point on the concentration scale where inhibition reaches its midpoint. Turning to `C[S+](CC[C@H](N)C(=O)[O-])C[C@H]1O[C@@H](n2cnc3c(N)ncnc32)[C@H](O)[C@@H]1O` (some centres not stated) [ADEMETIONINE], the IC50 is 12 µM.

Consider `Nc1ncnc2c1ncn2[C@@H]1O[C@H](C[C@@H](N)CC[C@H](N)C(=O)O)[C@@H](O)[C@H]1O` [SINEFUNGIN], for which the IC50 was less than 1 µM.
